## Yeast mating assay 1: variants of the scFv Ab-14

The target is the same throughout: PDVDLGDISGINAS, from the HR2 region of SARS-CoV-2 spike.

Parent: Ab-14, a human scFv built as VH, a 15-residue (Gly4Ser)3 linker, VL. Only the CDRs of the light chain vary.
VH: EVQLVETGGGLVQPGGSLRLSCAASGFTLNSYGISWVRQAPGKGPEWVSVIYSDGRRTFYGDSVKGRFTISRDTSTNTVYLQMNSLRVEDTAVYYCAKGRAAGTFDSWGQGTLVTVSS
VL: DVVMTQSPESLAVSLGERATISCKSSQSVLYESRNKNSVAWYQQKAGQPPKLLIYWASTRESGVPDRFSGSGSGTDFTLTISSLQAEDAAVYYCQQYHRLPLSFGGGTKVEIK

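The parent was found by panning a naive human phage display library on the peptide. Library AAYL50 holds single substitutions and randomly drawn double and triple substitutions in the CDRs. The assay is AlphaSeq: two haploid yeast populations carry antibody and antigen on their surface. Pairs that bind mate more often; barcode pairs of the diploids are counted by sequencing. Read counts were normalised to the haploid input and turned into Kd by a linear fit to BCL2-family pairs of known affinity, for each replicate. Each pool was mated in three replicate cultures.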

Variants are written as CDR1, CDR2 and CDR3 of the light chain (limits as in the source). Parent: KSSQSVLYESRNKNSVA, WASTRES, QQYHRLPLS. The read-out is the apparent dissociation constant on a log10 scale (nM): the lower, the stronger. "nd" means that the variant was in the library but no mating with the target was seen in that replicate; the authors take this as a sign of poor binding, and no number exists. Empty control strains, which show no peptide, gave a signal in 18% of pairings with library AAYL50; the median was 4.19 and 95% of these signals were weaker than 2.99. No background was subtracted. Also given: how often the same scFv was detected with the empty control strains, with their mean in brackets.

| CDR-L1 | CDR-L2 | CDR-L3 | replicates, log10 nM | control signals |
|---|---|---|---|---|
| KSSQSYLYESRNKNSVA | WASTRES | QGYHRLPNS | 3.73 / 3.36 / 3.86 | 3 of 9 (4.61) |
| KSSQSVLNESSNKNSVA | WASTGES | QQYHRLPLS | 1.53 / 1.17 / 1.69 | 3 of 9 (3.75) |
| KSSQSVLSESRNKNNVA | WASTRIS | QQYHRLPLS | 1.51 / 1.20 / 1.37 | 0 of 9 |
| KSWQWVLYESRNKNSVA | WASTRDS | QQYHRLPLS | nd / nd / nd | 0 of 9 |
| KSSQSVLLRSRAKNSVA | WASTRES | QQYHRLPLS | nd / nd / nd | 1 of 9 (2.93) |
| KSSQSVLSESRNKNSVA | GASTRES | QQYHRLALS | 0.62 / 1.01 / 0.89 | 0 of 9 |
| KSSQSVLYESRNKNSVA | WHSTRES | QQYHRLPDQ | 4.10 / nd / nd | 0 of 9 |
| MSSQSVLQESRNKNSVA | WASTRES | QQCHRLPLS | 1.40 / 1.45 / 1.49 | 3 of 9 (4.00) |
| KSSQSVLYESRNKNSVN | WASTREW | QQYHRTPLS | nd / nd / nd | 0 of 9 |
| KSSQSVLYESRPKNSVA | WASTRRS | QQYHRLWLS | nd / nd / 2.96 | 2 of 9 (4.07) |
| KSSQSVLYERRNKNSVA | WASTLES | QQYHRLPLS | 2.11 / 2.11 / 2.20 | 4 of 9 (4.04) |
| KSSQSVLYESREKNSWA | WASTRES | QQYYRLPLS | nd / 3.80 / nd | 5 of 9 (4.28) |
| KSSQSVLYESRNQNSNA | WFSTRES | QQYHRLPLS | nd / nd / nd | 0 of 9 |
| KSSQSVLYHSRNKNSVA | WASTRES | QQYHRLPLQ | 1.39 / 1.63 / 1.47 | 1 of 9 (2.58) |
| KSSQSVWYESRCKNSVA | WTSTRES | QQYHRLPLS | 1.60 / 1.71 / 1.68 | 5 of 9 (3.72) |
| SSSQSVLYESRNKNSVA | WASTRES | QQYHEPPLS | 0.47 / 0.64 / 0.88 | 0 of 9 |
| KSSQSVLYESRNKESVA | WASTRTS | QQYHRFPLS | nd / nd / nd | 1 of 9 (3.55) |
| KSSQSVLYESRNKNSVA | WAKTRES | QQTHRLNLS | nd / nd / nd | 1 of 9 (4.18) |
| KSSQSVLYESRNLNSVD | WASERES | QQYHRLPLS | 5.14 / 3.44 / 3.59 | 5 of 9 (4.38) |
| KSSQSVLYESRVKNSVA | GASTRES | QQYHHLPLS | 1.24 / 1.31 / 1.30 | 2 of 9 (3.99) |
| KSSQSVLYESRNKNSVA | WASTRES | QQSHRNPLS | nd / nd / nd | 1 of 9 (3.28) |
| KSSQSVLVESRNKVSVA | WASTRES | QQYHRGPLS | nd / nd / nd | 0 of 9 |
| KVSQSVLYESRNKNSVA | WASTREW | QQYHRLPPS | 3.63 / nd / nd | 3 of 9 (3.96) |
| KSSQSVLYESRNKNSVA | WASTRES | QQYRLLPWS | nd / nd / nd | 0 of 9 |
| KSSQSVLYESRNKNSVA | WASTRMS | QAYHRLVLS | 0.80 / 0.98 / 0.82 | 1 of 9 (3.49) |
| KSSQSVLYESRNKNSVA | WASTRVS | QELHRLPLS | nd / nd / nd | 0 of 9 |
| KSSQSVVYESRNKNSVA | WASKRES | QMYHRLPLS | 2.70 / 2.61 / 2.81 | 2 of 9 (3.79) |
| KSSQSVLYESRNKNSVA | GASTRES | QQYARLPLC | -0.09 / 0.25 / 0.07 | 3 of 9 (5.94) |
| KSSQSVLYESRNKNSVA | WASTCMS | QQYHRLPLE | 3.43 / 2.23 / 2.12 | 0 of 9 |
| KSSQSVLYESRNKYSVA | SASTRES | QQYHRLPKS | 0.52 / 0.61 / 0.53 | 1 of 9 (2.87) |
| KSSQCVLYESRNKNSVA | WASTRES | QDYHRLPLH | 3.33 / 2.82 / 4.14 | 3 of 9 (5.06) |
| KSSMSVLYESRNKNSVA | WMSTRES | QQYHRLPKS | nd / 4.10 / nd | 2 of 9 (3.77) |
| KSSQSVLYESRLKNSVL | WALTRES | QQYHRLPLS | nd / nd / nd | 0 of 9 |
| KYSQSVLYESRNKNSME | WASTRES | QQYHRLPLS | nd / nd / nd | 0 of 9 |
| KSSQSVLYESRYKNSVA | WASTRES | QSYHRFPLS | 1.10 / 1.19 / 1.29 | 0 of 9 |
| KSSQSVLSESRNKNSVA | WCSTREC | QQYHRLPLS | nd / 2.81 / 2.63 | 0 of 9 |
| KPSQSVLYESRGKNSVA | WASTRES | QQYARLPLS | 2.12 / 2.31 / 2.27 | 5 of 9 (4.62) |
| KSSQSVLYESRNKNSHA | WASTRHQ | QQYHRLPLS | 5.18 / nd / 4.18 | 6 of 9 (4.68) |
| CSSQSVLYESRNHNSVA | WANTRES | QQYHRLPLS | 2.35 / 2.81 / 3.14 | 1 of 9 (3.74) |
| KSSQSVLYESRNTFSVA | WASTREF | QQYHRLPLS | 4.14 / 2.97 / 3.27 | 4 of 9 (3.86) |
| KSSQSVLYESRNKNSVA | WASHRES | QRYHRLPLS | nd / nd / nd | 0 of 9 |

From the AlphaSeq antibody data of Engelhart et al. 2022 (doi:10.1038/s41597-022-01779-4), copy in the FLAb collection.